Experimental data from the Kinase Knowledgebase extract (Sharma et al. 2016).

Sequences of proteins named here, by UniProt entry; tags and fusion partners are left off. A change or cut given only in a name is not applied to a line headed by its entry.
UniProt O00329: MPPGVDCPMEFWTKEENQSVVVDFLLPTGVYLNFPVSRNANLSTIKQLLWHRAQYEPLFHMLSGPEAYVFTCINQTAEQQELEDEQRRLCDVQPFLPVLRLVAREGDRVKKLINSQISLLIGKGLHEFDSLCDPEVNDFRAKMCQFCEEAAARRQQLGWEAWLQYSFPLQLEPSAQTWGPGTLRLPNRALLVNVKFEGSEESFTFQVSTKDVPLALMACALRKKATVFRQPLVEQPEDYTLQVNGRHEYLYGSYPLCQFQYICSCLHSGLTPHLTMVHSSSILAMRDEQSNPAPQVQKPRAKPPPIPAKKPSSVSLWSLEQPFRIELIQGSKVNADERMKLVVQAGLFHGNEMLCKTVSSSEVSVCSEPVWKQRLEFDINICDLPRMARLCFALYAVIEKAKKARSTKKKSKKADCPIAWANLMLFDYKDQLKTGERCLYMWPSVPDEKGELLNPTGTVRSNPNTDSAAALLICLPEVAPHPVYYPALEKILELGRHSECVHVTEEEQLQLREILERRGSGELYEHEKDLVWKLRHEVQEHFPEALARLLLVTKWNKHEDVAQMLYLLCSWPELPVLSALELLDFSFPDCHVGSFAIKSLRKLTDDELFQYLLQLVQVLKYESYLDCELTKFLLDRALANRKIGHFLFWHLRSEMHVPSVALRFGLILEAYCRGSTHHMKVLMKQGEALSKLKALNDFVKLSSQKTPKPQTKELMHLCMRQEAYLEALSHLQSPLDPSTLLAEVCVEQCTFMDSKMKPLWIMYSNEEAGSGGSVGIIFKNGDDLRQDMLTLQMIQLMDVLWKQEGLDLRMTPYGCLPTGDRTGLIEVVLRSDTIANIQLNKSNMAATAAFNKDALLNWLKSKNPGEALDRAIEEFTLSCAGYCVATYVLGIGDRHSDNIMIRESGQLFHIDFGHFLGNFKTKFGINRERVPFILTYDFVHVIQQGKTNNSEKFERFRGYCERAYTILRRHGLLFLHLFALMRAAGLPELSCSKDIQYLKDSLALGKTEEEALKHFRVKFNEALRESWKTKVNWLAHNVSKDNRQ

What was measured:
PIK3CD (Human) [1] = target: PIK3CD (Human) (UniProt O00329); experiment: Inhibition of PIK3CD Kinase Activity (Scintillation Proximity Assay)
PIK3CD (Human) [2] = target: PIK3CD (Human) (UniProt O00329); experiment: Inhibition of PIK3CD Kinase Activity
PIK3CD (Human) [3] = target: PIK3CD (Human) (UniProt O00329); experiment: Inhibition of PIK3CD Kinase Activity (AlphaScreen Assay)

| Structure (SMILES) | IC50 (PIK3CD (Human) [1]) | IC50 (PIK3CD (Human) [2]) | IC50 (PIK3CD (Human) [3]) |
| --- | --- | --- | --- |
| Cc1csc2nc([C@H](C)Nc3ccnc4[nH]cnc34)c(-c3cccc(F)c3)c(=O)n12 | < 50 nM | – | – |
| Cc1csc2nc([C@H](C)Nc3ncnc4[nH]cnc34)c(-c3cccc(F)c3)c(=O)n12 | < 50 nM | < 50 nM | – |
| Cc1csc2nc(C(C)Nc3ncnc4[nH]cnc34)c(-c3cccc(F)c3)c(=O)n12 (stereo unspecified) | < 50 nM | < 50 nM | < 50 nM |
